# Ab-14 heavy chain CDR variants: yeast mating affinities

Values reported by Engelhart et al. 2022, doi:10.1038/s41597-022-01779-4 (FLAb copy).

All variants were tested on one target, the spike HR2 peptide PDVDLGDISGINAS (SARS-CoV-2).

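The parent was found by panning a naive human phage display library on the peptide. The library (AAYL49) carries one to three amino acid substitutions per variant, with no insertions or deletions. In AlphaSeq, yeast of one mating type display the scFv and yeast of the other type display the target. Binding brings cells together so that they mate, and sequencing counts the barcode pairs among the diploids. The ratio of observed to expected reads was calibrated, replicate by replicate, on BCL2-family standards whose Kd was known from biolayer interferometry. Mating was done three times.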

The variants keep the light chain, the linker and the frameworks of Ab-14 (scFv order VH, a (GGGGS)3 linker, VL).
VH: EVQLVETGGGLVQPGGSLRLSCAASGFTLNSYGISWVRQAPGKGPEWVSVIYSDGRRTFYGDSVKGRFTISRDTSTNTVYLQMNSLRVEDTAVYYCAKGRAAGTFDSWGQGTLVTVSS
VL: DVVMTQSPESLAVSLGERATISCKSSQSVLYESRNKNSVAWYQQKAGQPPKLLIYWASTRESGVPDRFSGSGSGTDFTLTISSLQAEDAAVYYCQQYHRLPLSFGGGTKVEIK

Substitutions are numbered in sequence along the VH above, starting at 1 (not Kabat).
Every variant below is changed at G61 of the VH (sequential numbering).
The Kd shown is the geometric mean over detected replicates; a lower Kd is a better binder.
An entry "nd" has no value in the source: the pair was not observed among the diploids in any replicate. This suggests poor binding but is not conclusive.
For reference, the parent read 4.4 nM as the reference entry and 13 µM (one replicate of three) as a member of this library.
As a blank, each scFv also met three strains without target: over library AAYL49, 15% of these pairings were detected, typically at 11 µM and seldom below 680 nM.

* G61F+D62W+V64L = 18 µM (2 of 3 replicates)
* Y52D+G61W+G103N = nd (0 of 3 replicates)
* L29D+T58E+G61K = nd (0 of 3 replicates)
* Y32G+T58E+G61Q = nd (0 of 3 replicates)
* T28K+Y60P+G61Q = 19 µM (1 of 3 replicates)
* S31A+F59R+G61N = nd (0 of 3 replicates)
* N30Y+G61D+D62A = 53 nM (3 of 3 replicates)
* S35R+G61Y+D62H = nd (0 of 3 replicates)
* T28M+G61P+S63E = 1.7 µM (3 of 3 replicates)
* I51V+G61E+S63H = nd (0 of 3 replicates)
* G61L+A101G+F105S = 35 nM (3 of 3 replicates)
* S31E+Y32T+G61E = 1.7 µM (1 of 3 replicates)
* G61F+G99T = nd (0 of 3 replicates)
* I34V+Y52Q+G61W = 1.5 µM (1 of 3 replicates)
* Y52A+G61M+A101C = 43 µM (2 of 3 replicates)
* T28E+D54V+G61T = nd (0 of 3 replicates)
* G61E+D62W+V64F = nd (0 of 3 replicates)
* G33F+I51N+G61L = nd (0 of 3 replicates)
* S53A+G61H+R100S = 1.7 nM (3 of 3 replicates)
* S35Q+G61N+G99H = 79 µM (2 of 3 replicates)
* R56T+G61H+K65F = nd (0 of 3 replicates)
* N30D+Y52L+G61E = nd (0 of 3 replicates)
* G61I+F105N = 52 nM (3 of 3 replicates)
* G61H+V64A+A101T = 71 nM (3 of 3 replicates)
* Y52F+G61C+K65C = nd (0 of 3 replicates)
* G61Q+R100T = 1.9 nM (3 of 3 replicates)
* T28W+G61A+D106K = 140 nM (3 of 3 replicates)
* T28H+I51H+G61W = nd (0 of 3 replicates)
* D54R+R56C+G61S = 260 µM (1 of 3 replicates)
* N30G+D54A+G61R = nd (0 of 3 replicates)
* S53N+G61H = 2.4 µM (2 of 3 replicates)

The first 3 variants above that were never detected:

changes,Kd,detected
Y52D+G61W+G103N,nd,0 of 3
L29D+T58E+G61K,nd,0 of 3
Y32G+T58E+G61Q,nd,0 of 3